Laboratory results published in patent US8962608B2, “Cycloalkylnitrile pyrazole carboxamides as janus kinase inhibitors” (Merck Sharp & Dohme Corp., priority 2011, dated 2015).
Read-outs that look alike come from different tables or passages of the source.

Chains of the proteins cited; added tags and fusions are not shown. Residues count along the entry.
UniProt O60674, 849-1124: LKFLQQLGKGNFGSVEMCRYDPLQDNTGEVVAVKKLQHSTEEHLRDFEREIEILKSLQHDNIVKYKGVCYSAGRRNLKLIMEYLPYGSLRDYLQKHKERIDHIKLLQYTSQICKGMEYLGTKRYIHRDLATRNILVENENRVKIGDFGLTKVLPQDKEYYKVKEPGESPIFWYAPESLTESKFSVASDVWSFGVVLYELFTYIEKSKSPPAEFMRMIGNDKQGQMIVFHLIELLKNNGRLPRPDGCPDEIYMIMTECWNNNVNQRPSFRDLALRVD
UniProt P23458, 875-1153: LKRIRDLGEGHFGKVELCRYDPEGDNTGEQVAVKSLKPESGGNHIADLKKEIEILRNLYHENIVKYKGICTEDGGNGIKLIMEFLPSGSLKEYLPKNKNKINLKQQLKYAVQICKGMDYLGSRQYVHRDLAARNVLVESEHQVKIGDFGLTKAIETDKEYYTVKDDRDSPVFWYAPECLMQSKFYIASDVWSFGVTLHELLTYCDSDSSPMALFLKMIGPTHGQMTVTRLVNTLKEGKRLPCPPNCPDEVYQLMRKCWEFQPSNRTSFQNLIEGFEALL

Key:
[1] = target: T1, JAK2 (recombinant purified GST-tagged catalytic domain) (Homo sapiens (Human), UniProt O60674);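 note: biochemical JAK kinase assay with HTRF detection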
[2] = target: T2, JAK1 (recombinant purified GST-tagged catalytic domain) (Homo sapiens (Human), UniProt P23458);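 note: biochemical assay with HTRF read-out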
[3] = target: T2, JAK1 (recombinant purified GST-tagged catalytic domain); assay: biochemical
[4] = target: T1, JAK2 (recombinant purified GST-tagged catalytic domain); assay: biochemical

SMILES	IC50 [2] [nM]	IC50 [3] [nM]	IC50 [4] [nM]	IC50 [1] [nM]
CC(O)(c1ccc(Nc2nn([C@H]3CCCC[C@@H]3C#N)cc2C(N)=O)cn1)C(F)F (single isomer, unassigned) [Example 17-40, 1-[(1S,2S or 1R,2R)-2-cyanocyclohexyl]-3-({6-[(1R or 1S)-2,2-difluoro-1-hydroxy-1-methylethyl]pyridin-3-yl}amino)-1H-pyrazole-4-carboxamide]				5
N#C[C@H]1CCCC[C@@H]1n1cc(C(N)=O)c(Nc2ccc(S(=O)(=O)C(F)(F)F)cc2)n1 (single isomer, unassigned) [Example 43-2, 1-[(1S,2S or 1R,2R)-2-cyanocyclohexyl]-3-({4-[(trifluoromethyl)sulfonyl]phenyl}amino)-1H-pyrazole-4-carboxamide]	1			
N#C[C@H]1C[C@@H](O)CC[C@@H]1n1cc(C(N)=O)c(Nc2ccc(OC(F)F)nc2)n1 [Example 33-22]	2			
N#C[C@H]1C[C@@H](N2CCC2)CC[C@@H]1n1cc(C(N)=O)c(Nc2ccc(C(F)(F)F)nc2)n1 (single isomer, unassigned) [Example 28-11, 1-[(1S,2S,4S or 1R,2R,4R)-4-azetidin-1-yl-2-cyanocyclohexyl]-3-{[6-(trifluoromethyl)pyridin-3-yl]amino}-1H-pyrazole-4-carboxamide]		6	75	
N#C[C@@H]1C[C@H](C(=O)N2CC3(CCC3)C2)CC[C@H]1n1cc(C(N)=O)c(Nc2ccc(Cl)cc2)n1 (single isomer, unassigned) [Example 35-4, 1-[(1R,2R,4R or 1S,2S,4S)-4-(2-azaspiro[3.3]hept-2-ylcarbonyl)-2-cyanocyclohexyl]-3-[(4-chlorophenyl)amino]-1H-pyrazole-4-carboxamide]		16	133	
CC1CN([C@H]2CC[C@H](n3cc(C(N)=O)c(Nc4ccc(S(=O)(=O)C(F)(F)F)cc4)n3)[C@@H](C#N)C2)C1 (single isomer, unassigned) [Example 28-186, 1-[(1S,2S,4S or 1R,2R,4R)-2-cyano-4-(3-methylazetidin-1-yl)cyclohexyl]-3-({4-[(trifluoromethyl)sulfonyl]phen-yl}amino)-1H-pyrazole-4-carboxamide]		0.15	9	

More lines, main results first:

IC50 [2] [nM]	IC50 [3] [nM]	IC50 [4] [nM]	SMILES	IC50 [1] [nM]
0.95			N#C[C@H]1C[C@@H](N2CC3(COC3)C2)CC[C@@H]1n1cc(C(N)=O)c(Nc2ccc(C(F)(F)F)cc2)n1 (single isomer, unassigned) [Example 28-120, 1-[(1S,2S,4S or 1R,2R,4R )-2-cyano-4-(2-oxa-6-azaspiro[3.3]hept-6-yl)cyclohexyl]-3-{[4-(trifluoromethyl)phenyl]amino}-1H-pyrazole-4-carboxamide]	
	0.3	6	CC1(C)CN([C@H]2CC[C@H](n3cc(C(N)=O)c(Nc4ccc([C@](C)(O)C(F)(F)F)cc4)n3)[C@@H](C#N)C2)C1 (single isomer, unassigned) [Example 28-89, 1-[(1S,2S,4S or 1R,2R,4R)-2-cyano-4-(3,3-dimethylazetidin-1-yl)cyclohexyl]-3-({4-[(1S or 1R)-2,2,2-trifluoro-1-hydroxy-1-methylethyl]phenyl}amino)-1H-pyrazole-4-carboxamide]	
	0.36	3	CC(C)(c1ccc(Nc2nn([C@H]3CCCC[C@@H]3C#N)cc2C(N)=O)cc1)[C@H](O)C(F)(F)F (single isomer, unassigned) [Example 17-29, 1-[(1S,2S or 1R,2R)-2-cyanocyclohexyl]-3-({4-[(2S or 2R)-3,3,3-trifluoro-2-hydroxy-1,1-dimethylpropyl]phenyl}amino)-1H-pyrazole-4-carboxamide]	
